The target in assay [1] is human MMP-1 (amino acids 100-262) (Homo sapiens, UniProt P03956). Kind of assay: MMP dose response assay for determining IC50, MMP-1. The conditions noted are these: read-out: MMP-1; recombinant catalytic domain, fluorescent-quench substrate 100 nM.
Assay [2] addresses human MMP-2 (amino acids 1-660) (Homo sapiens, UniProt P08253). Briefly: MMP dose response assay for determining IC50, MMP-2. The conditions noted are these: read-out: MMP-2; recombinant enzyme, fluorescent-quench substrate 100 nM. It counts as biochemical.

Amino acid sequences for entries named in this document (tags omitted). Residues count along the entry.
UniProt P03956, 100-262 limits assumed: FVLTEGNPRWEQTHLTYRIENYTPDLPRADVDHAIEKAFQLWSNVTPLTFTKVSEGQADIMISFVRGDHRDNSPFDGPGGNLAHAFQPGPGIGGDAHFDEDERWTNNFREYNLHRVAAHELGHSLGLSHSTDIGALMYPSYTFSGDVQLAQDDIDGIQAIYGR
UniProt P08253, 110-660 limits assumed: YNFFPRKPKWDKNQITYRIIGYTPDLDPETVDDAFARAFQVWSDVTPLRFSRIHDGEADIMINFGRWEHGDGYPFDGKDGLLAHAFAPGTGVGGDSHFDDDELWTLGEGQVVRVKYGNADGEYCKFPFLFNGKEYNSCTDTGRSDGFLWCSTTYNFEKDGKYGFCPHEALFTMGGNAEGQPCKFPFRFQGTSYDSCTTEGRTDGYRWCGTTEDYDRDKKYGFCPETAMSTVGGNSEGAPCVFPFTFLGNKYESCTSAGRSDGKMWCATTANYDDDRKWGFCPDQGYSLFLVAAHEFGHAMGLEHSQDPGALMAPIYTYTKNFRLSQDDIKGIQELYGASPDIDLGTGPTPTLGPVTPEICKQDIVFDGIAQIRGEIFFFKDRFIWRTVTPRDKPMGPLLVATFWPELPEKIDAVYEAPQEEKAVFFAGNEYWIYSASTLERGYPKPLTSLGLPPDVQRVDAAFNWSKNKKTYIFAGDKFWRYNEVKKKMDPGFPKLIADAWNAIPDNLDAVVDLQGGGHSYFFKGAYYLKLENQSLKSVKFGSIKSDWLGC

Values joined by “and” are separate entries in the source; they are usually repeats but may differ in a detail not shown here. Equal values may be shown once.

Consider `CNC(=O)C1CCN([C@@H](CN(c2ccc(Oc3ccc(C(F)(F)F)cc3)cc2)S(C)(=O)=O)C(=O)NO)CC1`, for which the IC50 was above 10000 nM in assay [1]; 5.79 nM and 5.16 nM in assay [2].

These data come from patent US20080085893A1, “MATRIX METALLOPROTEASE INHIBITORS” (priority 2006, published 2008).
